Target: Nociceptin receptor (Homo sapiens, UniProt P41146)
Assay: ASSAY_NAME: Human Nociceptin/Orphanin FQ Peptide (hNOP) Receptor Binding Assay DESCRIPTION: The hNOP receptor binding assay was performed as homogeneous SPA-assay (scintillation proximity assay) using the assay buffer 50 mM TRIS-HCl. 10 mM MgCl2. 1 mM EDTA (pH 7.4). The final assay volume (250 μl/well) included 0.5 nM of [leucyl-3H]nociceptin as ligand (PerkinElmer Life Sciences. Inc. Boston.

Amino acid sequences for entries named in this document (tags omitted).
UniProt P41146, whole entry: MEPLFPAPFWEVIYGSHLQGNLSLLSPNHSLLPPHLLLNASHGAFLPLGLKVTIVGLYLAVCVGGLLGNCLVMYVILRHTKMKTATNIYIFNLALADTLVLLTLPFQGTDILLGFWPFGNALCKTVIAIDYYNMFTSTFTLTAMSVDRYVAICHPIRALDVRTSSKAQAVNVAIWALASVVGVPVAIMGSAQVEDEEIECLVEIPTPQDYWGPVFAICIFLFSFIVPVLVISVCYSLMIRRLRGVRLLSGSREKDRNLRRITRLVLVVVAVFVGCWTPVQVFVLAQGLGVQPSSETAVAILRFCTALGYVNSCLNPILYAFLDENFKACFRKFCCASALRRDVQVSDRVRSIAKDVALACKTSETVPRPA

CN(C)[C@]1(c2ccccc2)CC[C@]2(CC1)CN(c1cnc(-c3cccc4c3CC(=O)N4)nc1)C(=O)N2
Ki: 39 nM

From BindingDB's records for US10807988
